{"source": "patent US20220282217A1", "about": "“COMPOSITIONS AND METHODS FOR PREPARING T CELL COMPOSITIONS AND USES THEREOF” (priority 2019, published 2022)", "key": {"[1]": {"molecular_target": "T1, HLA-A11.01 (Homo sapiens, UniProt P04439, A114D/F33Y/S129P)", "T1 construct": "made in house; host or cells: E. coli", "assay": "Class I MHC peptide binding stability (pMHC-I dissociation, 125I-labeled light chain)", "conditions": "HLA Allele A11.01; time for half of the complexes to dissociate at 37° C."}, "[2]": {"molecular_target": "HLA-A03.01 (Homo sapiens, UniProt P04439)", "assay": "Class I MHC peptide binding stability (pMHC-I dissociation, 125I-labeled light chain)", "set-up": "made in house; host or cells: E. coli", "conditions": "HLA Allele A03.01; time for half of the complexes to dissociate at 37° C."}}}
{"smiles": "CC(C)[C@H](N)C(=O)N[C@H](C(=O)N[C@H](C(=O)NCC(=O)N[C@@H](C)C(=O)N[C@@H](CS)C(=O)NCC(=O)N[C@H](C(=O)NCC(=O)N[C@@H](CCCCN)C(=O)O)C(C)C)C(C)C)C(C)C", "values": [{"measurement": "Measured stability", "setting": "[1]", "result": 15.7, "unit": "h"}, {"measurement": "Measured stability", "setting": "[2]", "result": 2.5, "unit": "h"}]}
